The values that follow come from ChEMBL document CHEMBL4325855 (Eur J Med Chem, 2019).

Sequences of proteins named here, by UniProt entry; tags and fusion partners are left off. A change or cut given only in a name is not applied to a line headed by its entry.
UniProt P53779: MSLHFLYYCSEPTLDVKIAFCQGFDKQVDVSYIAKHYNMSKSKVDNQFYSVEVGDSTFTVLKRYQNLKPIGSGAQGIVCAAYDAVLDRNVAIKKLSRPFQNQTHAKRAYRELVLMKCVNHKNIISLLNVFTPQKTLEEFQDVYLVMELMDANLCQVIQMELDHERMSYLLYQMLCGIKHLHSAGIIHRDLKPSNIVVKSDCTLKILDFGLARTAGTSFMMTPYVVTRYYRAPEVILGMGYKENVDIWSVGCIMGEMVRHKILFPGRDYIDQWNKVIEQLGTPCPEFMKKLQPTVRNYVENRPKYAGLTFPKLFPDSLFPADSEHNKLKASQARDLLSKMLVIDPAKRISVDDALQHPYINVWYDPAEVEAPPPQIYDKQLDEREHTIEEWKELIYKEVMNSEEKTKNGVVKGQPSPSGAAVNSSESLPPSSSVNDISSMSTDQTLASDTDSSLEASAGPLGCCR
UniProt P45983: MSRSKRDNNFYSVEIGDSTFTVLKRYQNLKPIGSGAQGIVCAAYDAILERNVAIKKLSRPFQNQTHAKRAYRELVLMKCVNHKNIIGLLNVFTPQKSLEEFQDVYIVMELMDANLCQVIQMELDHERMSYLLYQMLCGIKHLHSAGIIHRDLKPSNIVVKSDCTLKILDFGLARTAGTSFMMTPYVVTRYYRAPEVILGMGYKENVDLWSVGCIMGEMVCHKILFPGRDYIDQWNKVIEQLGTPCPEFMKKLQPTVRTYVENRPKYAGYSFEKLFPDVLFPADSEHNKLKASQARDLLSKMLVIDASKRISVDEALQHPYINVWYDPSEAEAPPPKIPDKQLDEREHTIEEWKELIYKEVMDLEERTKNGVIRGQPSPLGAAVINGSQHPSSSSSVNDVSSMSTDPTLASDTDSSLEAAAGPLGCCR

Type in all cases: cell-based
Test [1] deals with Mitogen-activated protein kinase 10 (Homo sapiens, UniProt P53779). Kind of test: Binding affinity to human partial length JNK3 (V28 to Q422 residues) expressed in HEK293 cells measured after 1 hr by Kinomescan method. Summed up:
(§1)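 Competition binding on a phage-display/cell-expressed kinase platform; each compound incubated with kinase 1 h at room temperature. Unbound kinase was captured on an immobilized affinity ligand and quantified by qPCR. N.A. means no inhibition below 40 µM.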

The target of test [2] is Mitogen-activated protein kinase 8 (Homo sapiens, UniProt P45983). In words: Binding affinity to human full-length JNK1 (M1 to Q384 residues) expressed in HEK293 cells measured after 1 hr by Kinomescan method. The procedure, abridged:
as §1

The target in test [3] is T1, c-Jun N-terminal kinase, JNK (Homo sapiens, UniProt P45983+P53779+P45984). Kind of test: Inhibition of JNK in human THP1-Blue cells assessed as reduction in LPS-induced NFkappaB/AP1 activation preincubated for 30 mins followed by LPS-stimulation and measured after 24 hrs by quanti-blue staining based alkaline phosphatase reporter gene assay. (A reporter such as luciferase makes a cellular process visible.)

Test [4] deals with Mitogen-activated protein kinase 9 (Homo sapiens, UniProt P45984). In words: Binding affinity to human full-length JNK2 (M1 to Q382 residues) expressed in HEK293 cells measured after 1 hr by Kinomescan method. Summed up:
as §1

In test [5] the target is T1, c-Jun N-terminal kinase, JNK. In words: Inhibition of JNK in human MONO-MAC-6 cells assessed as reduction in LPS-induced IL6 production preincubated for 30 mins followed by LPS-stimulation and measured after 24 hrs by ELISA. The procedure, abridged:
(§2)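 MonoMac-6 cells, 2 × 10^5/well in medium with 3% endotoxin-free FBS, were pretreated 30 min with compound or DMSO, then stimulated with 250 ng/ml LPS for 24 h. IL-6 in the supernatant was measured by human IL-6 ELISA. IC50 came from percent inhibition vs log concentration (at least five points); triplicate samples, representative of three experiments.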
On the technique in general: An ELISA detects its analyte on a solid surface through an enzyme-linked reagent.

Test [6] has the same target. Kind of test: Inhibition of JNK in human THP1-Blue cells assessed as reduction in LPS-induced NFkappaB/AP1 activation at <40 uM preincubated for 30 mins followed by LPS-stimulation and measured after 24 hrs by quanti-blue staining based alkaline phosphatase reporter gene assay. Summed up:
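THP-1Blue monocytes carry a secreted alkaline phosphatase reporter under an NF-κB/AP-1-inducible promoter and were grown in RPMI 1640 with 10% FBS plus Zeocin and blasticidin selection. Cells, 2 × 10^5/well, were pretreated 30 min with compound or DMSO, then given 250 ng/ml LPS for 24 h. Supernatant phosphatase was read with QUANTI-Blue at 655 nm against LPS controls; IC50 calculated.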

Test [7] shares this target. Kind of test: Inhibition of JNK in human MONO-MAC-6 cells assessed as reduction in LPS-induced IL6 production at <40 uM preincubated for 30 mins followed by LPS-stimulation and measured after 24 hrs by ELISA. The procedure, abridged: as §2

Activity calls are given as the source filed them. The rule behind the calls is not given here.

Usually Kd stands for the free concentration of one partner at which half of the binding sites on the other are occupied at equilibrium, for simple one-to-one binding. Compound `O=C1c2ccccc2-c2n[nH]c3cccc1c23` came in with a Kd in test [1] of 22 nM.
As a reminder, the IC50 is the point on the concentration scale where inhibition reaches its midpoint. `O/N=C1\c2ccccc2-c2nc3ccccc3nc21`: the Kd stood at 100 nM in test [1], 240 nM in test [2] and 360 nM in test [4]. Besides, the IC50 worked out at 2300 nM in test [3] and 3800 nM in test [5].
In the case of `O=C1c2ccccc2-n2c1nc1ccccc1c2=O` [TRYPTANTHRIN], the inhibition result in test [6] and in test [7] was “inactive” throughout.
